Values quoted from earlier work, collected in patent publication US20110136245A1, “SYNERGISTIC INTERACTIONS OF PHENOLIC COMPOUNDS FOUND IN FOOD” (priority 2009, published 2011).

Settings: published values (Jorgensen & Skibsted 1998; Foley et al. 1999); cited from earlier work

Which one-electron reduction potential does the source give for (+)-catechin here?
The one-electron reduction potential was 0.36 V.
